Results as given in paper PMC11295067.

Sequences of proteins named here, by UniProt entry; tags and fusion partners are left off. A change or cut given only in a name is not applied to a line headed by its entry. Residues count along the entry.
UniProt P63096, 2-354, chain 1 of 3: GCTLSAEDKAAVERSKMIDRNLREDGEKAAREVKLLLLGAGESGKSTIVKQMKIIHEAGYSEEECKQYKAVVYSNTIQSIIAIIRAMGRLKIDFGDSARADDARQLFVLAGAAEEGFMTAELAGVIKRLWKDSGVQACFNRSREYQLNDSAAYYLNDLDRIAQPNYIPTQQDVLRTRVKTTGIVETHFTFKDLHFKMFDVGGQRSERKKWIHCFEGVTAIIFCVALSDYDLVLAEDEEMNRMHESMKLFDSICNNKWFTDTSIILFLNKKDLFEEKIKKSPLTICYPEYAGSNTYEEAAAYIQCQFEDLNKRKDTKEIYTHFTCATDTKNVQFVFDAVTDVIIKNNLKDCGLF
UniProt P50148: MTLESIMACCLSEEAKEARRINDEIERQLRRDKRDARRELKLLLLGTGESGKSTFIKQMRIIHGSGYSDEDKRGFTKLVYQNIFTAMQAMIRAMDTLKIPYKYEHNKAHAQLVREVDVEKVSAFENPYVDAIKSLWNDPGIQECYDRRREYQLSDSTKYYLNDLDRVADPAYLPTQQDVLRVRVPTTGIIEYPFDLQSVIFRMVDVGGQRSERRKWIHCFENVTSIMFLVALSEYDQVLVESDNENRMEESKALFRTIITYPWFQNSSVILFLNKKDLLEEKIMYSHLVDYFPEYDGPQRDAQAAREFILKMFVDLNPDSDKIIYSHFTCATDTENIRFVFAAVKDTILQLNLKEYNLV

Columns and labels:
[1] = target: human Gi heterotrimer (human) (UniProt P63096)
[2] = target: human Gq heterotrimer (human) (UniProt P50148)

For “Jumping Spider Rhodopsin-1 (JSR1) reconstituted with all-trans retinal 6.11 (ATR6.11) (receptor)”, the GTPase-Glo assay: GTP depletion by Gi heterotrimer with JSR1/ATR6.11, after illumination [1] was 91%, the GTPase-Glo assay: GTP depletion by Gi heterotrimer with JSR1/ATR6.11, without illumination (58% without JSR1) [1] was 80% and the GTPase-Glo assay: GTP depletion by Gq heterotrimer with JSR1/ATR6.11, after illumination [2] was 47%. It also gave a GTPase-Glo assay: GTP depletion by Gq heterotrimer with JSR1/ATR6.11, without illumination (13% without JSR1) [2] of 28%.
